# Data reported in patent publication US20030069187A1, “Elastase inhibitors” (priority 2001, published 2003).
# The chains behind the UniProt entries cited, without tags or fusion partners. Residues count along the entry.
# UniProt P00772, 27-266: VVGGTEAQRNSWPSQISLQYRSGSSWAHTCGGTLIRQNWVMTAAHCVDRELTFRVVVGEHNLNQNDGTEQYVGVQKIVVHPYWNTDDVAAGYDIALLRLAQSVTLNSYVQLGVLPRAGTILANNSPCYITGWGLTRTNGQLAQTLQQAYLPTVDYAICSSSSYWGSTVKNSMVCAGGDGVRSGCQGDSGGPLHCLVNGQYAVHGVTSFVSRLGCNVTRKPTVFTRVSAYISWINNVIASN
# Tests used:
# Format in all cases: biochemical
# [1] = target: T1, porcine pancreatic elastase (PPE) (Sus scrofa, UniProt P00772); experiment: Elastase inhibitory capacity assay with succinylated elastin substrate; conditions: 0.029 U PPE, 200 μg succinylated elastin, 37° C. 30 min, % inhibition standardized to μg protein, p<0.001
# T1 construct: purchased Calbiochem, San Diego, Calif
# Protocol: FIG. 1 is a bar graph depicting results from experiments in which the inhibitory capacity of each EDP isolate was evaluated in triplicate using 200 μg of succinylated elastin (Rao et al., 1997; Mathrubutham et al., 1998), 30 μg of Total EDP, […] of G-25 fractions and RP-HPLC fractions and 0.029 U PPE in 150 μl with 50 mM sodium borate pH8.5. Reactions were incubated at 37° C. for 30 minutes, then treated with 2,4,6-trinitrobenzene sufonic acid. Absorbance at A450nm was determined after 20 min at room temperature. Elastase inhibitory capacity was evaluated by comparing the activity of PPE in the presence and absence of EDP, where elastase in the absence of EDP was considered to represent 100% elastase activity. […]
# Total EDP was fractionated on a G-25 Sephadex column equilibrated with 50 mM sodium borate pH 8.5 at a flow rate of 0.7 ml/minute. G-25 inhibitory fractions were then analyzed by reverse phase high performance liquid chromatography (RP-HPLC) using a C-18 column (Vydac, Hesperia, Calif.) with 5% acetonitrile, 0.1% triflouroacetic acid pH 2.3 as RP buffer at a flow rate of 0.5 ml/minutes and monitored at A205nm. […] The inhibitory capacity of G-25 and RP-HPLC EDP fractions were evaluated (Rao et al., 1997; Mathrabutham et al., 1998) using 3 μg of G-25 fraction and RP-HPLC peptide with 0.029 U PPE. […] The inhibitor constant (Ki) was experimentally calculated (Lineweaver et al., 1936). […]
# [2] = target: T1, porcine pancreatic elastase (PPE); experiment: Kinetic analysis (Lineweaver-Burk) of inhibitor constant with elastin substrate, PPE
# Protocol: (§1) Total EDP was fractionated on a G-25 Sephadex column equilibrated with 50 mM sodium borate pH 8.5 at a flow rate of 0.7 ml/minute. G-25 inhibitory fractions were then analyzed by reverse phase high performance liquid chromatography (RP-HPLC) using a C-18 column (Vydac, Hesperia, Calif.) with 5% acetonitrile, 0.1% triflouroacetic acid pH 2.3 as RP buffer at a flow rate of 0.5 ml/minutes and monitored at A205nm. Fractions were collected, dried, and resuspended in 50 μl water and assayed for elastase inhibitory capacity (Rao et al., 1997; Mathrabutham et al., 1998). The inhibitory capacity of G-25 and RP-HPLC EDP fractions were evaluated (Rao et al., 1997; Mathrabutham et al., 1998) using 3 μg of G-25 fraction and RP-HPLC peptide with 0.029 U PPE. Percentage inhibitory capacity was evaluated by comparing the activity of PPE in the presence and absence (100% activity) of EDP and standardized to μg protein. The inhibitor constant (Ki) was experimentally calculated (Lineweaver et al., 1936). The assay was carried out in triplicate as previously described (Rao et al., 1997) using 11.16-134 μM elastin substrate, 3.34-9.94 μM AFP peptide, 0.029 U of porcine pancreatic elastase (PPE) and 0.010 U human neutrophil elastase (HNE; 21 U/mg; Calbiochem San Diego, Calif.) and incubated at 37° C. for 1,3 and 5 min. Ki is a measure of inhibiting effect and lower Ki indicates greater inhibition.
# [3] = target: T2, human neutrophil elastase (HNE) (Homo sapiens, UniProt P08246); experiment: Kinetic analysis (Lineweaver-Burk) of inhibitor constant with elastin substrate, HNE
# T2 construct: purchased Calbiochem San Diego, Calif
# T2 sequence (P08246 30-267): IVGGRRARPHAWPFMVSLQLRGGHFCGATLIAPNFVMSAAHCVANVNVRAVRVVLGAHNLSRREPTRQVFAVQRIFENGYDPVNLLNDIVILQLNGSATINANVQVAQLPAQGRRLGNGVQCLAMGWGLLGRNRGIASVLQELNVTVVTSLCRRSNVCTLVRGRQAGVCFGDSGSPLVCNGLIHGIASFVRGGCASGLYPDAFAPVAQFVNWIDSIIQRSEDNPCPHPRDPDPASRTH
# Protocol: as §1
compound,measurement,setting,value
"C[C@H](N)C(=O)N[C@@H](Cc1ccccc1)C(=O)N1CCC[C@H]1C(=O)O [AFP, Ala-Phe-Pro]",increase in elastase inhibitory capacity compared to total EDP,[1],4.4 fold
same,increase in elastase inhibitory capacity compared to total EDP,[1]; listed as Synthetic AFP,7.6 fold
same,Ki,"[2]; PPE 0.029 U, 11.16-134 μM elastin substrate, 3.34-9.94 μM AFP, 37° C.",38 nM
same,mode of inhibition of PPE,[2]; kinetic analysis,competitive inhibitor
same,Ki,"[3]; HNE 0.010 U, 11.16-134 μM elastin substrate, 3.34-9.94 μM AFP, 37° C.",23 nM
same,mode of inhibition of HNE,[3]; kinetic analysis,competitive inhibitor
